The results in this text go back to PMC10663846 (The Journal of Biological Chemistry, 2023).

Test [1] concerns OVCAR8 cells and human PBMCs co-culture, TNFα secretion. In words: OVCAR8:PBMC co-culture, secreted TNFα (ELISA). The class given is cell-based. Particulars: 1:10 OVCAR8:PBMC, 24 h, MN1.4 500, 100 or 10 μM, rPD-L1 1 μM. As for the experimental part:
For co-culture experiments with excess PBMCs ratios, OVCAR8 cells were seeded at 2 × 10^4 cells/well on a 24-well plate and allowed to adhere overnight. The next day, cells were stimulated with 100 ng/ml IFNγ and two vials of human PBMCs were thawed. On day 3, concentrations of PBMCs and OVCAR8 cells were measured. The concentration of PBMCs required for a 1:10 OVCAR8:PBMC ratio was calculated from the OVCAR8 concentration. PBMCs were plated on a separate 24-well plate (1 ml/well) and stimulated with 5 μg/ml of anti-CD3 and 5 μg/ml of anti-CD28 for 30 min before drug treatment. […] After 30 min, media was removed from OVCAR8 wells and replaced with 1 ml of treated PBMCs. After 24 h, the supernatants were collected from each well, and centrifuged at 10,000g for 5 min.
For co-culture experiments analyzed via IL-2 PCR-ELISA, supernatants were processed using the IL-2 Human ProQuantum Immunoassay Kit (ThermoFisher Scientific, Cat. No. A35603) according to manufacturer’s instructions with the following modifications. The low-volume protocol was followed for samples from excess OVCAR8 co-culture experiments and antibody control experiments. […] TNFα levels were also assessed in excess PBMC co-culture samples using TNFα ELISA MAX Deluxe Set from BioLegend (Cat. No. 430204) according to manufacturer’s instructions. Absorbance was measured using a Tecan Spark multimode plate reader. […]
A general note: ELISA stands for enzyme-linked immunosorbent assay.

Test [2] deals with OVCAR8 cells and human PBMCs co-culture, IL-2 secretion. In words: OVCAR8:PBMC co-culture, secreted IL-2 (PCR-ELISA). Particulars: 1:10 OVCAR8:PBMC, 24 h; MN1.4 500, 100 or 10 μM; rPD-L1 1 μM; triplicate, two donors. The class given is cell-based. As for the experimental part: For co-culture experiments with excess OVCAR8 ratios, OVCAR8 cells were seeded at 2 × 10^5 cells/well on a 6-well plate and allowed to adhere overnight. The next day, cells were stimulated with 100 ng/ml IFNγ (R&D Systems, Cat. No. 285-IF-100), and two vials of human PBMCs were thawed according to manufacturer’s instructions. On day 3, concentrations of PBMCs and OVCAR8 cells were measured using QuadCount Automated Cell Counter (Accuris Instruments). The concentration of PBMCs required for a 10:1 OVCAR8:PBMC ratio was calculated from the OVCAR8 concentration. […] After 30 min, media was removed from OVCAR8 wells and replaced with 1 ml of treated PBMCs. […]
For co-culture experiments with excess PBMCs ratios, OVCAR8 cells were seeded at 2 × 10^4 cells/well on a 24-well plate and allowed to adhere overnight. […] On day 3, concentrations of PBMCs and OVCAR8 cells were measured. The concentration of PBMCs required for a 1:10 OVCAR8:PBMC ratio was calculated from the OVCAR8 concentration. […]
For co-culture experiments analyzed via IL-2 PCR-ELISA, supernatants were processed using the IL-2 Human ProQuantum Immunoassay Kit (ThermoFisher Scientific, Cat. No. A35603) according to manufacturer’s instructions with the following modifications. […] Absorbance was measured using a Tecan Spark multimode plate reader. […]

As for “rPD-L1: full-length, recombinant PD-L1 (R&D systems, Cat. No. 156-B7-100)”, the “TNFα levels compared to untreated co-culture control” value in test [1] is “significantly decreased”. Also, in test [2], the “IL-2 levels compared to untreated co-culture control” value was “significantly decreased”.
